According to US5804593A, “α-Amino sulfonyl hydroxamic acids as matrix metalloproteinase inhibitors” (Pharmacia & Upjohn Company, priority 1997, dated 1998):

Target: Gelatinase
Assay: particle concentration fluorescence assay of MMP inhibition in vitro
Type: biochemical
Conditions: fluorescein/biotin-labelled substrate, avidin-coated particles, room temperature, pH 7.5
Method: Inhibitory activity is evaluated in one or more of the MMP enzymes (stromelysin, gelatinase, and collagenase) in vitro using particle concentration fluorescence assay. An inhibitor binds to MMP enzymes which prevents the degradation of a substrate by stromelysin, gelatinase, or collagenase. The substrate has attached to it a fluorescein and a biotin moiety. The intact substrate then binds to an avidin-coated particle via the biotin moiety. Once the particle is washed and dried, a fluorescent signal is generated since the fluorescent group is attached to the particle. Without an inhibitor present, the substrate is degraded by MMP enzymes and the fluorescein group is removed, therefore, no fluorescent signal can be detected. Testing compounds are dissolved in DMSO to the desired concentration, then the solutions are diluted to 1:5 with MMP buffer (50 mM Tris-HCl, pH 7.5; 150 mM NaCl; 0.02% NaN3). Serial two-fold dilutions of each compound are prepared. A concentrated, activated enzyme solution is transferred into each plate of the testing compounds, and the mixture is incubated at room temperature for 15 minutes. Thawed MMP substrate is then added into all plates, and the plates are incubated in the dark for 1-3 hours at room temperature. […] After 15 minutes, the fluorescence values are measured following filtration and washing of the beads. Ki values are then calculated.

COc1ccc(S(=O)(=O)N[C@@H](C(=O)NO)C(C)C)cc1 [Example 8, N-hydroxy-2(R)-[(4-methoxybenzenesulfonyl)amino]-3-methyl butanamide]
Ki: 9.1 nM
